Kd data for one molecule are collected here from PMC10459755, “Production in Bacteria and Characterization of Engineered Humanized Fab Fragment against the Nodal Protein” (Pharmaceuticals, 2023).

The chains behind the UniProt entries cited, without tags or fusion partners. Residues count along the entry.
UniProt Q96S42, 238-347: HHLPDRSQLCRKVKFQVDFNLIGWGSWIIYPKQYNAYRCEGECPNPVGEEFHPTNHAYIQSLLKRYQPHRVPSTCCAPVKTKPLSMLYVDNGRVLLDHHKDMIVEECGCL

For this assay, the target named is T1, human recombinant Nodal (rhNodal) (Homo sapiens, UniProt Q96S42).
T1 construct: Nodal, human, recombinant; also called Nodal recombinant protein; recombinant protein Nodal; source: bought: R&D Systems (code 3218-ND/CF)
As to the kind of experiment: BLI; rhNodal immobilised at 10 μg/mL in 10 mM NaAc pH 4.5 on AR2G sensors; rhFab_3D1 at 6.25-100 nM in PBS with 0.02% Tween20, 0.1% BSA, 0.05% sodium azide; 25 °C; 1:1 Langmuir model, one fit for each concentration; apparent KDs; final KD averaged from 25, 50 and 100 nM. The following applies: both partners purified. On the technique in general: Biolayer interferometry detects binding as a change in optical thickness at a sensor tip.

B1: recombinant humanized Fab of the 3D1 anti-Nodal antibody (rhFab_3D1) (Fab, V domains shown)
VH: EVQLVESGGGLVQPGGSLRLSCAASGFTFRNYWMSWVRQAPGKGLEWVAEIRLKSDNYAARYAESVKGRFTISRDTSKNTAYLQMNSLRAEDTAVYYCSGIRRFAYWGQGTLVTVSS
VL: DIQMTQSPSSLSASVGDRVTITCKSSQSLLNSGNQKNYLTWYQQKPGKAPKLLIYWASTRESGVPSRFSGSRSGTDFTLTISSLQPEDFATYYCQNDYSYPLTFGQGTKVEIK
In the case of B1, the Kd amounted to 7.8 nM.
